Literature values, collected in patent US5665700A, “Pharmaceutical formulations” (Skua Investments Limited, priority 1994, dated 1997).

Conditions: in vivo; cited from earlier work

POE(100) stearic acid
LD50: 25000 mg/kg

POE(50) stearic acid
LD50: > 25000 mg/kg
